The results in this text go back to patent US20230203162A1.

Like-named read-outs stand apart in the source and are kept apart here.

Test [1] deals with plasma-membranous human MSLN on cell lines (H226, HPAC, H292, OVCAR-3, MeT-5A) (human) (UniProt Q13421). Briefly: cELISA on H226 cells expressing human MSLN, detection with HRP-coupled anti-human IgG antibody, OD450-690 nm.
Test [2] deals with cynomolgus monkey MSLN on recombinant CHO cell line (cynomolgus monkey). Briefly: cELISA on CHO cells expressing cynomolgus monkey MSLN, detection with HRP-coupled anti-human IgG antibody, OD450-690 nm.
Test [3] has as its target biotinylated MSLN (human MSLN in the MSLN/MUC16 competition ELISA) (human) (UniProt Q13421). Briefly: competition ELISA: biotinylated human MSLN (1 ng/ml) preincubated with the titrated antibody, added to coated MUC16, detection with streptavidin-polyHRP40; blocked ligand MUC16.
Test [4] has the same target. The test is described as above. This is another data set of the same source.
The target of test [5] is plasma-membranous human MSLN on cell lines (H226, HPAC, H292, OVCAR-3, MeT-5A) (human) (UniProt Q13421). Briefly: cELISA on H226 cells expressing human MSLN, detection with HRP-coupled anti-human IgG antibody, OD450-690 nm. The source holds these as a separate data set.
Test [6] has the same target. The test is described as above. This is another data set of the same source.

Broadly, the EC50 (read off the curve) is the concentration needed to bring the measured effect to its halfway point.

As to anti-MSLN reference antibody Amatuximab, the EC50 (read off the curve) in test [1] was found to be 0.08 nM; in test [2], 0.4 nM; in test [5] it was 0.1 nM; in test [6] it was 0.2 nM. Further, the IC50 (read off the curve) in test [3] was 0.01 nM; in test [4], 0.02 nM.
